# Test results published in paper PMC3634732, “Chemical Chaperones Exceed the Chaperone Effects of RIC-3 in Promoting Assembly of Functional α7 AChRs” (PLoS ONE, 2013).
# Amino acid sequences for entries named in this document (tags omitted). Residues count along the entry.
# UniProt P36544, 23-502 limits assumed: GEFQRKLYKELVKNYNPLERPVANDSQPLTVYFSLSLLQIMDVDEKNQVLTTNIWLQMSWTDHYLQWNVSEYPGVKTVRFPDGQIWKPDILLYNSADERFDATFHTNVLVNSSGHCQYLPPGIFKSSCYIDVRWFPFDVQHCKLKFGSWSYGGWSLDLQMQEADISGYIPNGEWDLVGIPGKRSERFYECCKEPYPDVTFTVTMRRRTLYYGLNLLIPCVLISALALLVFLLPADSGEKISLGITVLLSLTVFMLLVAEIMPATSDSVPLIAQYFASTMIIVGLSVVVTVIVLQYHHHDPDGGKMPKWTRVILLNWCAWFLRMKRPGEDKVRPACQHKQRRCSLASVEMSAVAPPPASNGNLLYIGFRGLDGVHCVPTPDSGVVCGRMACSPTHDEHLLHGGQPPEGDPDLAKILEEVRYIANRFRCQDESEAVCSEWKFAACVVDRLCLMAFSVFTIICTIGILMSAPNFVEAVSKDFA
# Assays:
# [1] = biological target: α7 AChRs on the surface of cells in the α7/RIC-3 line (Homo sapiens, UniProt P36544); experiment: Upregulation of surface 125I αBgt binding in the α7/RIC-3 cell line; format: cell-based
# [2] = biological target: α7 AChRs on the surface of the α7 cell line (Homo sapiens, UniProt P36544); experiment: Upregulation of surface 125I αBgt binding in the α7 cell line; details: 48 hours
Compound,"Expression of α7 AChRs on the cell surface ([1]; α7/RIC-3 line, single chemical chaperone)",Potency at upregulation less than potency as agonist or antagonist of function ([1]; upregulation EC50 vs functional potency) [fold],"Upregulation of 125I αBgt binding to the cell surface ([1]; α7/RIC-3 line, 48 hours) [fold]",Upregulation of 125I αBgt binding to the cell surface [2] [fold]
Sodium butyrate,greatly increased,–,–,–
CCN1C[C@]2(COC(=O)c3ccccc3N3C(=O)C[C@H](C)C3=O)CC[C@H](OC)[C@@]34[C@@H]5C[C@H]6[C@H](OC)[C@@H]5[C@](O)(C[C@@H]6OC)[C@@](O)([C@@H](OC)[C@H]23)[C@@H]14,–,> 2000,2.1,16
